Each compound was assayed against T1, human progesterone receptor-A [PRA] isoform (Homo sapiens, UniProt P06401) (assay: Radioligand binding with human progesterone receptor cytosol ([3H]-progesterone competition)). Conditions: PRA cytosol expressed in insect SF21 cells, [3H]Prog ~0.8 nM, 4° C. overnight; Ki by Cheng-Prusoff, KL ~4.5 nM; read-out: Ki (nM) PR.
T1 construct: host or cells: insect SF21 cells (baculovirus)
T1 sequence (P06401 1-769 isoform P06401-2): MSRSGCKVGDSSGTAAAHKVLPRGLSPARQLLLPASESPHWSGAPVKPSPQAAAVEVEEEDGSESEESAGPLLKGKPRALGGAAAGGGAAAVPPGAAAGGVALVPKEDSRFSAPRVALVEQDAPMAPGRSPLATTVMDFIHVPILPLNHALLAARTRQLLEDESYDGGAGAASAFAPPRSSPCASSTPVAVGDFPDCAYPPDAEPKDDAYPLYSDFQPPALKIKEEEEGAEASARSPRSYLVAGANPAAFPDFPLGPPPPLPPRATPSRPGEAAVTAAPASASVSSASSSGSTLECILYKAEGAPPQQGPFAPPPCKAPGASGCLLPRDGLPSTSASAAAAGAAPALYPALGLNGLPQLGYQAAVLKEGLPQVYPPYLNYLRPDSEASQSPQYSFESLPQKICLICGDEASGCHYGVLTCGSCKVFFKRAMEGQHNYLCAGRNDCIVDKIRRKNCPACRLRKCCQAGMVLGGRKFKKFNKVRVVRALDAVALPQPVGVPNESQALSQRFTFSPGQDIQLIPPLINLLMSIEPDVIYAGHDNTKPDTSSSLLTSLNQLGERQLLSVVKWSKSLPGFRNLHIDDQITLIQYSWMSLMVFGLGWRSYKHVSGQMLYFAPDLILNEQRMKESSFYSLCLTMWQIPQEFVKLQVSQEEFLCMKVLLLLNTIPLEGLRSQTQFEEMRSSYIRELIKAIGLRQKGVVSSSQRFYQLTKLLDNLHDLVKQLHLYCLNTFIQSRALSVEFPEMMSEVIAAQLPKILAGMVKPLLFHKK

In order of rising Ki:
1. COc1cccc2c1-c1ccc3c(c1[C@H]([C@@H]1C=CCCC1)O2)C(C)=CC(C)(C)N3 [Example 391, (−)(5S,3′S)2,5-Dihydro-10-methoxy-2,2,4-trimethyl-5-(cyclohexen-3-yl)-1H-[1]benzopyrano[3,4-f]quinoline]  1090 nM
2. COc1c(O)ccc2c1-c1ccc3c(c1[C@@H](C1CCCC1)O2)C(C)=CC(C)(C)N3 [Example 265, (+)(R)5-Cyclopentyl-2,5-dihydro-9-hydroxy-10-methoxy-2,2,4-trimethyl-1H-[1]benzopyrano[3,4-f]quinoline]  1500 nM

Same assay, conditions: read-out: Ki (nM) PR

Work on `C=CCC1Oc2ccc(F)c(OC)c2-c2ccc3c(c21)C(C)=CC(C)(C)N3` (stereo not drawn) [Example 234, 10-Methoxy-9-fluoro-5-(3-propenyl)-2,2,4-trimethyl-1H-2,5-dihydro-[1]benzopyrano[3,4-f]quinoline] yielded a Ki of 202 nM.

Each compound was assayed against T2, human glucocorticoid receptor-α [GRX] isoform (Homo sapiens, UniProt P04150) (assay: Radioligand binding with human glucocorticoid receptor cytosol ([3H]-dexamethasone competition)). Conditions: GRX cytosol expressed in insect SF21 cells, [3H]-Dex ~0.9 nM, 4° C. overnight; Ki by Cheng-Prusoff, KL ~1.5 nM; read-out: Ki (nM) GR.
T2 construct: host or cells: insect SF21 cells (baculovirus)
T2 sequence (P04150 1-777): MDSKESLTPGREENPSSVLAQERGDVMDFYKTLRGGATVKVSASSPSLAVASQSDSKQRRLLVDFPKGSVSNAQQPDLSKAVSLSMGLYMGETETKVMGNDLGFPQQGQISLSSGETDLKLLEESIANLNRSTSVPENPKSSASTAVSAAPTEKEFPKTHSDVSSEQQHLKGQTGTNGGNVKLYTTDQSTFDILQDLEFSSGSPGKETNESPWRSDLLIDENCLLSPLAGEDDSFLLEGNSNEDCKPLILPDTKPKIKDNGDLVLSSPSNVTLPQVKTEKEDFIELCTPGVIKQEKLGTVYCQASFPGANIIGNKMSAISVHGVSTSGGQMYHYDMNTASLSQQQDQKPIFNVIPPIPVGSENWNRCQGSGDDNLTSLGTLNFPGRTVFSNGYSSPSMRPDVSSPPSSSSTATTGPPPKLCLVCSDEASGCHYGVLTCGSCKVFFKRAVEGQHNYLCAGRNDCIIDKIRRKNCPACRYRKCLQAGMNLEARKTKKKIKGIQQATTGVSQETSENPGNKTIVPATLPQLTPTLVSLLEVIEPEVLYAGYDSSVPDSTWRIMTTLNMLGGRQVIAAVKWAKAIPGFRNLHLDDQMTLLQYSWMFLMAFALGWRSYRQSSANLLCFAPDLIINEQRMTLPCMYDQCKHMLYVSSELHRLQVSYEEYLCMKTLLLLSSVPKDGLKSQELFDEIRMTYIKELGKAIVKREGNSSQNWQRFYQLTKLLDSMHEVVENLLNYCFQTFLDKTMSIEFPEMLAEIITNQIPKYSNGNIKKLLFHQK

In order of rising Ki:
1. C=CCC1Oc2ccc(OC(=O)CCC(=O)N(C)C)c(Cl)c2-c2ccc3c(c21)C(C)=CC(C)(C)N3 (racemic) [Example 421, (+/−)2,5-Dihydro-9-(4-N,N-dimethylamino-4-oxo-butanoyloxy)-10-chloro-2,2,4-trimethyl-5-allyl-1H-[1]benzopyrano[3,4-f]quinoline]  0.66 nM
2. CC1=CC(C)(C)Nc2ccc3c(c21)[C@H]([C@@H]1C=CCC1)Oc1ccc(O)c(Cl)c1-3 [Example 221, (−)2,5(S)-Dihydro-9-hydroxy-10-chloro-2,2,4-trimethyl-5-(3S-cyclopentenyl)-1H-[1]benzopyrano[3,4-f]quinoline]  0.66 nM
3. COc1c(O)ccc2c1-c1ccc3c(c1C(c1cccs1)O2)C(C)=CC(C)(C)N3 (stereo not drawn) [Example 274, 2,5-Dihydro-9-hydroxy-10-methoxy-2,2,4-trimethyl-5-(2-thienyl)-1H-[1]benzopyrano[3,4-f]quinoline]  0.69 nM
4. C=CCC1Oc2cccc(Cl)c2-c2ccc3c(c21)C(C)=CC(C)(C)N3 (stereo not drawn) [Example 309, 10-Chloro-5-(3-propenyl)-2,2,4-trimethyl-2,5-dihydro-1H-[1]benzopyrano[3,4-f]quinoline]  1.9 nM
5. CCC1([C@@H]2Oc3ccc(O)c(OC)c3-c3ccc4c(c32)C(C)=CC(C)(C)N4)CC=CCC1 (single isomer, unassigned; (-)) [Example 263]  2.2 nM
6. COc1c(O)ccc2c1-c1ccc3c(c1C(c1ccc(F)c(F)c1)O2)C(C)=CC(C)(C)N3 (stereo not drawn) [Example 254, 2,5-Dihydro-9-hydroxy-10-methoxy-2,2,4-trimethyl-5-(3,4-difluorophenyl)-1H-[1]benzopyrano[3,4-f]quinoline]  2.2 nM
7. C=CCC1Oc2cccc(CO)c2-c2ccc3c(c21)C(C)=CC(C)(C)N3 (stereo not drawn) [Example 329, 2,5-Dihydro-10-(2-hydroxymethyl)-5-(3-propenyl)-2,2,4-trimethyl-1H-[1]benzopyrano[3,4-f]quinoline]  2.2 nM
8. C=CCC1Oc2cccc(C=O)c2-c2ccc3c(c21)C(C)=CC(C)(C)N3 (stereo not drawn) [Example 330, 2,5-Dihydro-10-formyl-5-(3-propenyl)-2,2,4-trimethyl-1H-[1]benzopyrano[3,4-f]quinoline]  2.2 nM
9. COc1c(O)ccc2c1-c1ccc3c(c1/C(=C/c1ccccc1)O2)C(C)=CC(C)(C)N3 [Example 365, Z-5-(Benzylidenyl)-9-hydroxy-10-methoxy-2,2,4-trimethyl-1H-2,5-dihydro]  2.2 nM
10. CC1=CC(C)(C)Nc2ccc3c(c21)/C(=C/c1cccc(F)c1)Oc1ccc(O)c(Cl)c1-3 [Example 367, Z-5-(3-Fluorobenzylidenyl)-10-chloro-9-hydroxy-2,2,4-trimethyl-2,5-dihydro-1H-[1]benzopyrano[3,4-f]quinoline]  2.2 nM
11. COc1c(O)ccc2c1-c1ccc3c(c1C(Cc1cc(F)cc(F)c1)O2)C(C)=CC(C)(C)N3 (stereo not drawn) [Example 382, 2,5-Dihydro-9-hydroxy-10-methoxy-2,2,4-trimethyl-5-(3-5-difluorophenylmethyl)-1H-[1]benzopyrano[3,4-f]quinoline]  2.2 nM
12. COc1cccc2c1-c1ccc3c(c1C(CC=C1CCCCCC1)O2)C(C)=CC(C)(C)N3 (stereo not drawn) [Example 189, 2,5-Dihydro-10-methoxy-5-(2-cycloheptylidenylethyl)-2,2,4-trimethyl-1H-[1]benzopyrano[3,4-f]quinoline]  6.4 nM
13. CC1=CC(C)(C)Nc2ccc3c(c21)C(c1ccccc1)Oc1ccc2c(c1-3)OCO2 (stereo not drawn) [Example 227, 9-10-Methylenedioxy-5-phenyl-2,2,4-trimethyl-1H-2,5-dihydro-[1]benzopyrano[3,4-f]quinoline]  8.4 nM
14. COc1cccc2c1-c1ccc3c(c1C(=Cc1ccccc1)O2)C(C)=CC(C)(C)N3 (mixture of isomers) [Example 18, 2,5-Dihydro-10-methoxy-2,2,4-trimethyl-5-(phenylmethylene)-1H-[1]benzopyrano[3,4-f]quinoline]  10.5 nM
15. C#CCOc1cccc(C2Oc3cccc(OC)c3-c3ccc4c(c32)C(C)=CC(C)(C)N4)c1 (stereo not drawn) [Example 92, 2,5-Dihydro-10-methoxy-2,2,4-trimethyl-5-[3-(2-propynyloxy)phenyl]-1H-[1]benzopyrano[3,4-f]quinoline]  12 nM
16. CNc1cc(C)cc(C2Oc3cccc(OC)c3-c3ccc4c(c32)C(C)=CC(C)(C)N4)c1 (stereo not drawn) [Example 114, 3-(2,5-Dihydro-10-methoxy-2,2,4-trimethyl-1H-[1]benzopyrano[3,4-f]quinolin-5-methyl)-5,N-dimethylbenzenamine]  12 nM
17. C=CCNc1cccc(C2Oc3cccc(OC)c3-c3ccc4c(c32)C(C)=CC(C)(C)N4)c1 (stereo not drawn) [Example 117, 3-(2,5-Dihydro-10-methoxy-2,2,4-trimethyl-1H-[1]benzopyrano[3,4-f]quinolin-5-yl)-N-(2-propenyl)benzenamine]  12 nM
18. C=CCOc1ccc2c(c1OC)-c1ccc3c(c1C(CC=C)O2)C(C)=CC(C)(C)N3 (stereo not drawn) [Example 293, 10-Methoxy-9-(3-propenyloxy)-5-(3-propenyl)-2,2,4-trimethyl-1H-2,5-dihydro[1]benzopyrano[3,4-f]quinoline]  12 nM
19. COc1cccc2c1-c1ccc3c(c1C(CC(C)=O)O2)C(C)=CC(C)(C)N3 (stereo not drawn) [Example 45, 1-(2,5-Dihydro-10-methoxy-2,2,4-trimethyl-1H-[1]benzopyrano[3,4-f]quinolin-5-yl)-2-propanone]  15 nM
20. COc1cccc2c1-c1ccc3c(c1C(CCCO)O2)C(C)=CC(C)(C)N3 (stereo not drawn) [Example 69, 2,5-Dihydro-10-methoxy-2,2,4-trimethyl-1H-[1]benzopyrano[3,4-f]quinoline-5-propanol]  15 nM
21. C=C(Br)CC1Oc2cccc(OC)c2-c2ccc3c(c21)C(C)=CC(C)(C)N3 (stereo not drawn) [Example 147, 2,5-Dihydro-10-methoxy-5-(2-bromo-3-propenyl)-2,2,4-trimethyl-1H-[1]benzopyrano[3,4-f]quinoline]  15 nM
22. COC(=O)CN(C)C(=O)Oc1cccc(C2Oc3cccc(OC)c3-c3ccc4c(c32)C(C)=CC(C)(C)N4)c1 (stereo not drawn) [Example 311, 2,5-Dihydro-10-methoxy-5-(3-(N-methyl-N-(carbomethoxymethyl)aminocarbonyloxy)phenyl)-2,2,4-trimethyl-1H-[1]benzopyrano[3,4-f]quinoline]  15 nM
23. C=C(CC1Oc2cccc(OC)c2-c2ccc3c(c21)C(C)=CC(C)(C)N3)C(=O)OC (stereo not drawn) [Example 173, 2,5-Dihydro-10-methoxy-5-(2-carbomethoxy-3-propenyl)-2,2,4-trimethyl-1H-[1]benzopyrano[3,4-f]quinoline]  32 nM

Same assay, conditions: read-out: Ki (nM) GR

`C=CCC1Oc2ccc(F)c(OC)c2-c2ccc3c(c21)C(C)=CC(C)(C)N3` (stereo not drawn) [Example 234, 10-Methoxy-9-fluoro-5-(3-propenyl)-2,2,4-trimethyl-1H-2,5-dihydro-[1]benzopyrano[3,4-f]quinoline] was tested, and the Ki was 3.8 nM.
